In patent US20250332178A1, “METHODS OF TREATING MYCOBACTERIAL INFECTIONS USING TETRACYCLINE COMPOUNDS” (priority 2018, published 2025):

Assay: Intra-pulmonary steady-state concentrations (plasma, ELF, alveolar cells) after multiple IV doses in healthy adult subjects
Conditions: human, in vivo, 100 mg
Experimental: The study was designed as a single-center, multiple-dose, open-label study to determine concentrations of omadacycline and tigecycline in pulmonary compartments (ELF and AC) in healthy adult subjects after administration of omadacycline and tigecycline to steady state levels of dosing. A total of 62 healthy volunteers participated in the study, who were randomized in a 2:1 ratio to receive either omadacycline or tigecycline. Of these, 42 received omadacycline as 5 intravenous doses of 100 mg administered as 30 minute infusions at t=0, 12, 24, 48 and 72 hours. The remaining 20 subjects received tigecycline as 1 intravenous dose of 100 mg administered as a 30 minute infusion at t=0, followed by 6 intravenous doses of 50 mg administered as 30 minute infusions at t=12, 24, 36, 48, 60, and 72 hours. A study completion visit was conducted on the day following the final test article dose. There was a final follow-up assessment 7 to 14 days following the subject's last dose of test article which may be completed by telephone contact or other interactive technology unless an examination was needed to evaluate adverse events or abnormalities noted at the study completion visit.
Plasma PK samples were collected pre-dose and at 0.5, 1, 1.5, 2, 3, 4, 6, 8, 12 and 24 hours post-dose on day 4. A sample for 24 hours was collected only for omadacycline. […]

In the case of CN(C)c1cc(CNCC(C)(C)C)c(O)c2c1C[C@H]1C[C@H]3C(N(C)C)C(O)=C(C(N)=O)C(=O)[C@@]3(O)C(O)=C1C2=O (stereo partly drawn) [Omadacycline, (4aS,5aR,12aS)-4,7-bis(dimethylamino)-3,10,12,12a-tetrahydroxy-9-((neopentylamino)methyl)-1,11-dioxo-1,4,4a,5,5a,6,11,12a-octahydrotetracene-2-carboxamide], the clearance is reported as 134 mL/min and the half-life is reported as 14.7 ± 4.2 h.
